Measured values from PMC13289030, “Qualification of the human Reconstructed Intestine Micronuclei Cytome assay for site-of-contact genotoxic hazard identification” (NAM journal, 2025).

Columns and labels:
[1] = cited from earlier work
[2] = Test material solubility limit for top test concentration; type: physicochemical
[3] = system: EpiIntestinal™ microtissues
[4] = system: EpiIntestinal™ microtissues; remark: listed apart in the source

Glycidamide
In vivo genotoxicity tests [1]: + MN & DNA adduct

Astaxanthin esters
Concentration above which test material is insoluble (top test concentration) [2]: 125 µg/mL
%MN induction (result in words) [3]: did not induce significant increase in %MN
Karyorrhectic cells (cytome analysis) [3]: non-significant increase in karyorrhectic cell population
Loss/reduction in cell viability [4]: ~20%
In vivo genotoxicity tests [1]: -
